# From PubChem BioAssay AID1214 (Sanford-Burnham Center for Chemical Genomics, 2008)
# Amino acid sequences for entries named in this document (tags omitted).
# UniProt P34949, whole entry: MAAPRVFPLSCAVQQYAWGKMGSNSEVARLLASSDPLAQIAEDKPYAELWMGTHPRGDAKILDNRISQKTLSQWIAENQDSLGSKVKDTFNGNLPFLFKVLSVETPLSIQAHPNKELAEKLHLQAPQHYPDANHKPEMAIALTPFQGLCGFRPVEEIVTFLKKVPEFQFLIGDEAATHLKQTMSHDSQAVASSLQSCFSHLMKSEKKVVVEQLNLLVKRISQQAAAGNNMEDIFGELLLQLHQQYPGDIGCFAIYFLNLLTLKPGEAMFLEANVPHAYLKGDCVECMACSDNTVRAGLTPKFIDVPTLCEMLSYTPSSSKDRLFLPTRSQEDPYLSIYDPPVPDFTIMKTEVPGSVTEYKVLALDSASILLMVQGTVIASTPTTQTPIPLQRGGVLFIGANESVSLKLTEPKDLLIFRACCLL
# Only a part is listed here, and it is no random draw. Active and inactive are the calls of the source.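 How the source made its calls: active means activation factor of 2 or more at 20 µM, relative to plate controls; inactive means the rest.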
# Target: Mannose-6-phosphate isomerase (Homo sapiens) (UniProt P34949)
# Assay: activators of human PMI, primary screen, biochemical, fluorescence intensity, near-Km mannose 6-phosphate (AID 1214)
# Conditions: purified human PMI, coupled resazurin fluorescence, 20 min, at 20 µM; active compounds read high, 1 = vehicle control, 0 substrate-free wells
row,SMILES,activation factor
1,CC(C)c1ccc(NC2CCN(C(=O)OC(C)(C)C)CC2)cc1,inactive: 0.9
2,COc1ccc(CN(CCCl)CCCl)cc1Cl,inactive: 0.7
3,CN(C)c1cccc(C(=O)NCC2(N3CCCCC3)CCCCC2)c1,inactive: 1.5
4,N#CC1(Nc2ccccc2)CCN(CCc2ccccc2)CC1,inactive
5,O=C(NCC1(N2CCCCC2)CCCCC1)c1cccc([N+](=O)[O-])c1,inactive: 1.1
6,O=C(NCC1(N2CCOCC2)CCCCC1)c1cc(=O)[nH]c2ccccc12,inactive: 0.9
7,CN1CCN(CCOC(=O)C(O)(c2ccccc2)c2ccccc2)CC1,inactive: 0.7
8,COc1ccc(NC2CCN(C(=O)OC(C)(C)C)CC2)cc1,inactive
9,COc1ccc(NC2CCN(CCc3ccccc3)CC2)c(OC)c1,inactive: 0.8
10,COc1ccc(C(=O)NCC2(N3CCCCC3)CCCCC2)c(OC)c1OC,inactive
11,O=C(NCC1(N2CCOCC2)CCCCC1)c1cc2ccccc2o1,inactive
12,O=C(OC1CN2CCC1CC2)C1c2ccccc2Oc2ccccc21 (stereo not given),inactive: 0.9
13,CCOC(=O)N1CCC(Nc2ccc(OC)cc2)CC1,inactive
14,CCOc1ncccc1C(=O)NCC1(N2CCOCC2)CCCCC1,inactive: 0.9
15,CC(C)(C)OC(=O)N1CCC(Nc2ccccc2)CC1,inactive: 1.1
16,COc1cc(OC)cc(C(=O)NCC2(N3CCOCC3)CCCCC2)c1,inactive: 1.1
17,CCC(CO)(C(=O)OC1CN2CCC1CC2)c1ccccc1 (stereo not given),inactive
18,Fc1ccccc1NC1CCN(Cc2ccccc2)CC1,inactive: 1.2
19,CCN1CCC(Nc2cccc(F)c2)CC1,inactive: 0.9
20,CN(C)c1ccc(C(=O)NCC2(N3CCCCC3)CCCCC2)cc1,inactive
21,N#Cc1ccc(C(=O)NCC2(N3CCCCC3)CCCCC2)cc1,inactive: 1.1
22,c1ccc(CN2CCC(Nc3ccccc3)CC2)cc1,inactive: 0.8
23,COc1ccc(C(=O)NCC2(N3CCOCC3)CCCCC2)cc1OC,inactive: 1.1
24,N/C(=N\O)c1c(N)no[n+]1[O-],inactive: 1.1
25,O=C(OC1CN2CCC1CC2)C1c2ccccc2C=Cc2ccccc21 (stereo not given),inactive: 1.1
